{
  "source": "patent US6525214B1",
  "about": "“Therapeutic agent” (priority 1991, dated 2003)",
  "experiment": "Water uptake of the solid",
  "assay_type": "physicochemical",
  "settings": "solid dihydrate",
  "data": [
    {"smiles": "CC(C)Cc1ccc([C@H](C)C(=O)[O-])cc1.O.O.[Na+]", "note": "[S(−)sodium 2-(4-isobutylphenyl)propionate dihydrate]", "values": [
      {"measurement": "Absorption of further water by the solid", "result": "does not absorb further water"}
    ]}
  ]
}
